Values of other authors in PMC12836451, “Cyclic Peptide–Polymer Conjugate Nanotubes for Delivery of SN‐38 in Treatment of Colorectal Cancer Model” (Advanced Healthcare Materials, 2025).

Conditions: typical conversion of irinotecan; cited from earlier work
Excerpt: Despite significant scientific advances in recent decades, cancer remains one of the most formidable challenges for modern medicine. The rising rates of colorectal cancer (CRC) diagnoses, particularly amongst younger people, exemplify the new complexities faced. Despite efforts to promote early detection and fast onset of treatment, the prognosis for CRC remains grim, ranking as one of the deadliest malignancies worldwide. […]

Q: For `CCc1c2c(nc3ccc(OC(=O)N4CCC(N5CCCCC5)CC4)cc13)-c1cc3c(c(=O)n1C2)COC(=O)[C@]3(O)CC` [Irinotecan, irinotecan hydrochloride], which “rate of enzymatic prodrug metabolism” value is on record?
A: Its value is less than 10%.

Structures can show the parent of a compound that is named as a salt.
